Source: patent US6683107B2, “Furans, benzofurans, and thiophenes useful in the treatment of insulin resistance and hyperglycemia” (Wyeth, priority 1998, dated 2004)

Protein sequences, listed by entry. Tags and fused reporters are not part of them. Lines headed by an entry give the natural chain unless they say otherwise; changes in a name come on top.
UniProt P18031: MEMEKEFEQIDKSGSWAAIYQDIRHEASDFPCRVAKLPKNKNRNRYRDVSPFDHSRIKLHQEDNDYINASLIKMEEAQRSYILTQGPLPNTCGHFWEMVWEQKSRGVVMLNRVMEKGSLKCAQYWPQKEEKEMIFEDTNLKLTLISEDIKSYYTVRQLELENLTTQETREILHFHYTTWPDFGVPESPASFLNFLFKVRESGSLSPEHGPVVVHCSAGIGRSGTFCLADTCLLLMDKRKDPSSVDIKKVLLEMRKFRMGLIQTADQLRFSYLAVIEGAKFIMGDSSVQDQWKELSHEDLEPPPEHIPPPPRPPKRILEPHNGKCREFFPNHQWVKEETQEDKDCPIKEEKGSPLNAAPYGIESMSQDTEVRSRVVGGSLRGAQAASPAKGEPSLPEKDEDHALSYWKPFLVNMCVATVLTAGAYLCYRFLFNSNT

Target: human recombinant PTP1B (hPTP1B) (Homo sapiens, UniProt P18031)
Assay: Inhibition of tri-phosphorylated insulin receptor dodecaphosphopeptide dephosphorylation by hPTP1B (malachite green phosphate detection)
Type: biochemical
Conditions: insulin receptor 1142-1153 triphosphopeptide substrate, 37° C., 30 min, pH 7.4

Phenylarsine oxide showed a pIC50 of 4.40.

pIC50: −log10 of the molar value.
